According to patent publication US20020170078A1, “Calcineurin-related transgenic mammals, compositions and methods” (priority 2001, published 2002):

Test system: Schaffer collateral pathway to area CA1 of hippocampal slices
Assay: 1-train (100 Hz) LTP, field potential recordings in hippocampal slices
Assay type: cell-based, mouse
Details: mutant slices (expressing calcineurin inhibitor); with KT5720 (1 uM); versus 168±17

KT5720
1-train LTP, % baseline 30 min after tetanus: 126±7 % baseline
